Antibody variant affinities, Ab-14 heavy chain, assay B

Antigen: PDVDLGDISGINAS, a 14-residue peptide of the SARS-CoV-2 spike HR2 region.

Each scFv is VH, three GGGGS repeats, VL, as in the parent Ab-14, and differs from it in the CDRs of the heavy chain only.
VH: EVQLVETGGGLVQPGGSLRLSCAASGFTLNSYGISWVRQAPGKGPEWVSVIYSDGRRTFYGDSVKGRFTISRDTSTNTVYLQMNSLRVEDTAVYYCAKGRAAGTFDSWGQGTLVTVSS
VL: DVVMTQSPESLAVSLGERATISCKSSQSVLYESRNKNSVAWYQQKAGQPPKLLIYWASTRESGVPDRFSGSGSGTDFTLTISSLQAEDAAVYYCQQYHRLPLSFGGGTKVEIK

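Designed CDR sequences, proposed from the first random library and measured here. Several design methods are mixed in this list. Affinity was read by AlphaSeq, a pooled yeast mating assay with surface-displayed partners. The frequency of each diploid, read from paired DNA barcodes, reflects how well the two displayed proteins bind. The ratio of observed to expected reads was calibrated, replicate by replicate, on BCL2-family standards whose Kd was known from biolayer interferometry. There are six technical replicates.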

Each variant is given by its three heavy chain CDRs, as the data file delimits them; those of the parent are GFTLNSYGIS, VIYSDGRRTFYGDSVK, GRAAGTFDS. Affinities are written as log10 Kd with Kd in nM; a lower number is a better binder. A mean of the replicates is given; it leaves out those without a signal. A pair that was not seen in any replicate is written "not detected"; this usually means weak binding, but a binder can also be missed. Empty control strains, which show no peptide, gave a signal in 1% of pairings with all heavy chain designs; the median was 2.08 and 95% of these signals were weaker than 0.84. No background was subtracted. The authors averaged sequences with at least three values out of six and counted those with two or fewer as poor binders. A sequence measured in both rounds can read differently, since the two assays cover different ranges.

CDR-H1	CDR-H2	CDR-H3	log10 Kd (nM), mean	seen in
GFSLNEYGIS	VIYSDGRRTFYGDSVK	GQAAGTFDD	0.29	6/6
GFELNSYGIS	VIYSDGRRTFYRDSVK	GQTAGTFDL	0.95	6/6
GFNLDEYGIS	VIYADGKRTFYADSVK	GQVAGTFDV	-0.72	6/6
GFDLDEYGVS	VIYADGERKAYADKVK	GTHGGTRDI	not detected	0/6
GFDLNSYGIS	VIYADGRRTFYGDSVK	GRAAATFDS	1.47	6/6
GFTLNSYGIS	VIYSDGRRTFYGDSLK	GQAAGVFDT	not detected	0/6
GFELNSYGIS	VIYSDGRRTFYADSVK	GRQAGTFDT	0.45	6/6
GFTLNSYGIS	VIYSDGRRTAYDDSVK	GRAAGTFDL	1.61	4/6
GFTLNDYGIY	VIYSDGRRTFYNDSVK	GRRALTFIS	not detected	0/6
GFTLNSYGIS	VIYSDGRRTFYSDSVK	GRAAVTFDP	not detected	0/6
GFSLNSYGIS	VIYSDGRRTFYVDDVK	GRQAGTFDS	0.33	6/6
GFTLNSYGIS	VIYSDGQRTSYGDSVK	GRAAGTTDS	not detected	0/6
GFVLNEYGIS	VIYSDGRRTFYGDSVK	GQAAGTFDS	1.47	6/6
GFNLNEYGIS	VIYADGQRTFYADSVK	GQIAGTFIV	0.86	6/6
GFDLNEYGIS	VIYADGRRTQYIDSVK	GETAGTFDM	0.12	6/6
GFTLNQYGIN	VIYSDGRRTFYSDSVK	GRAAGFFDS	4.11	2/6
GFDLNEYGIS	VIYADGMRTAYIDSVK	GEQAGTFDI	-0.21	6/6
GFTLNSYGIS	VIYSDGRRTFYGDSVK	GRAAGCFCS	not detected	0/6
GFELNSYGIS	VIYSDGRRTFYADHVK	GKTAGTFDS	1.39	5/6
GFTLNQYGIS	VRYSDGRRTFYSDSVK	GRAAGFFYS	not detected	0/6
GFNLNSYGIS	VIYSDGRRTFYADPVK	GQAAGTFDN	1.52	6/6
GFNLNSYGIS	VIYSDGRRTFYADQVK	GQTAGTFDS	0.27	6/6
GFTLNEYGIS	VIYSDGRRTFYGDSVK	GCVAGTFDQ	1.01	3/6
GFTLNSYGIS	VIYSDGRRTFYSDSVK	GRAGWTFDS	2.23	1/6
GFELNEYGIS	VIYSDGRRTFYGDPVK	GRTAGTFDS	0.25	6/6
GFSLNEYGIS	VIYSDGRRTFYGDAVK	GRAAGTFDI	0.79	6/6
GFTLNSYGIS	VIYSDGRRTFYLDNVK	GREAGTFDS	not detected	0/6
GMKLQDYGIS	VIYADGVRTAFKESVK	GQIAGTFNS	0.80	6/6
GFDLNEYGIS	VIYADGSRTAYADSVK	GANAGTFDV	-0.55	6/6
GFELDKYGIS	VIYSDGRRTFYGDSVK	GRTAGTFDS	-0.12	6/6
GFTLNSYGIS	VIYSDGRRTFYKDSVK	GQTAGTFDS	1.24	6/6
GFSLNDYGIS	VIYSDGRRTAYGDSVK	GRAAGTFDL	-0.09	6/6
GFDVDEYGIS	VIYADGRRVAYHDSFK	GQNNVVSIV	-0.25	6/6
GFNLNSYGIS	VIYADGRRTFYVDSVK	GRAAGTFDS	0.51	6/6
GEVLDEYGIS	VIYADGQRVQYSDNVK	GLLTGAFDM	not detected	0/6
GQSLEEYGIS	VIYADGKRTQYKNSVK	GTNADDITV	not detected	0/6
GFNLEEYGIS	VIYADGMRSEYSDNVK	GHKGNWFQD	not detected	0/6
GFDLNEYGIS	VIYADGHRTRYSNNVK	GGVGGIGLS	2.02	6/6
GFDLEKYGIS	VIYADGKRVAYTDAVK	GGTGGMLMS	2.76	2/6
GFTLNSYGIS	VIYSDGWRTFYDDSVK	GRAAGTFDA	2.04	5/6
GFGLDEYGIS	VIYADGARKAYQNYFK	GVQAGTFVN	not detected	0/6
GFDLDEYGIS	VIYADGVRTAYVDSVK	GQNAGTFDV	-0.19	6/6
RFDLNSYGIS	VIYSDGRRTFYGDSVK	GRAAGWFNS	not detected	0/6
GFSLNSYGIS	VIYSDGRRTFYADSVK	GNTAGTFDS	0.30	6/6
GFSLDEYGIS	VIYADGRRTMYCDKFK	GELGCTFVG	0.23	1/6
GFSLNDYGIS	VIYSDGRRTFYGDSVK	GRVAGTFDS	-0.39	6/6
GFRLNSYGIS	VIYSDGRRTFYADSVK	GQTAGTFDS	0.92	6/6
GFLLDDYGIS	VIYADGLRKAYVDEVK	GYVAGTFDM	-0.22	6/6
GFGLNEYGIS	VIYSDGKRTFYSDSVK	GRAAGTFDS	-0.43	6/6

Excerpt, the final 5 entries:

CDR-H1	CDR-H2	CDR-H3	log10 Kd (nM), mean	seen in
GFSLDEYGIS	VIYADGRRTMYCDKFK	GELGCTFVG	0.23	1/6
GFSLNDYGIS	VIYSDGRRTFYGDSVK	GRVAGTFDS	-0.39	6/6
GFRLNSYGIS	VIYSDGRRTFYADSVK	GQTAGTFDS	0.92	6/6
GFLLDDYGIS	VIYADGLRKAYVDEVK	GYVAGTFDM	-0.22	6/6
GFGLNEYGIS	VIYSDGKRTFYSDSVK	GRAAGTFDS	-0.43	6/6

Source: Li et al. 2023 (doi:10.1038/s41467-023-39022-2), MIT Lincoln Laboratory and A-Alpha Bio; data file from the FLAb repository.